Experiment: In vivo toxicity (body weight, spleen, serum cytokines)
Set-up: species or system C57BL/6 mice
Settings: s.c., Pam2CSK4 100.6 nmol

Substance: Pam2CSK4
- spleen size (splenomegaly) (48 h after administration): splenomegaly
- body weight (EUCV 25 mpk (25.2 nmol) and 100 mpk (100.6 nmol), measured at 0, 24, 48 h): induced weight loss
